Test results as given in patent publication EP4670733A1, “METHODS FOR PREPARING VIRAL PROTEINS AND USES THEREOF” (priority 2024, dated 2025).

Tested on: A/H1N1/Michigan/45/15 X-275 (H1N1) virus strain
Test: Particle size by dynamic light scattering (DLS)
Format: physicochemical, influenza virus
Conditions: Sample E2, compared to the No Detergent control; FIG. 2A-2F

## CCCCCCCCCCCC[N+](C)(C)[O-] [LDAO]
  particle size distribution: reduced the particle size distribution after splitting

## CCCCCCCCCCCCCC[N+](C)(C)[O-] [TDAO]
  particle size distribution: reduced the particle size distribution after splitting
